Measured values reported in patent US10350219B2, “Antimicrobial compositions and methods of making the same” (priority 2013, dated 2019).

Test: Table Lamp Light Exposure Test (TLE), discoloration
Assay type: physicochemical
Conditions: gel with glycerol 10%, clay 4%, silver 0.054% weight; for Gel color after continuous light exposure: After 24 h: 60 W table lamp; for Gel color after continuous light exposure: Fresh: 60 W table lamp at 1 to 1.5 feet

Row | Substance | Gel color after continuous light exposure: After 24 h | Gel color after continuous light exposure: Fresh
1 | Silver Mono-succinate | Brown black | –
2 | Silver Salicylate | – | Brown after 0.5 h
3 | Silver Sulfo-succinate | Brown black | Brown after 0.5 h
